# Measured values from ChEMBL document CHEMBL4368878 (Medchemcomm, 2018).
# Protein sequences, listed by entry. Tags and fused reporters are not part of them.
# UniProt P34972, whole entry: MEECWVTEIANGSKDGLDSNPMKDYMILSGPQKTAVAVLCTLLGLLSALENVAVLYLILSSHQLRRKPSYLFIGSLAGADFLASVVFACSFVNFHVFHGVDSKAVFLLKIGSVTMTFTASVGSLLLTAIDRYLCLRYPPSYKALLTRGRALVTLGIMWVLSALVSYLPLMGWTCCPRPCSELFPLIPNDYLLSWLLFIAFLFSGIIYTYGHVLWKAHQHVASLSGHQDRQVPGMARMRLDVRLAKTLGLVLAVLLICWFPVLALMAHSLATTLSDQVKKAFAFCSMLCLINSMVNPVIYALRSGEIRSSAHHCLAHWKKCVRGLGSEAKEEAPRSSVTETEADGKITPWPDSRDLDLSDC
# UniProt P21554, whole entry: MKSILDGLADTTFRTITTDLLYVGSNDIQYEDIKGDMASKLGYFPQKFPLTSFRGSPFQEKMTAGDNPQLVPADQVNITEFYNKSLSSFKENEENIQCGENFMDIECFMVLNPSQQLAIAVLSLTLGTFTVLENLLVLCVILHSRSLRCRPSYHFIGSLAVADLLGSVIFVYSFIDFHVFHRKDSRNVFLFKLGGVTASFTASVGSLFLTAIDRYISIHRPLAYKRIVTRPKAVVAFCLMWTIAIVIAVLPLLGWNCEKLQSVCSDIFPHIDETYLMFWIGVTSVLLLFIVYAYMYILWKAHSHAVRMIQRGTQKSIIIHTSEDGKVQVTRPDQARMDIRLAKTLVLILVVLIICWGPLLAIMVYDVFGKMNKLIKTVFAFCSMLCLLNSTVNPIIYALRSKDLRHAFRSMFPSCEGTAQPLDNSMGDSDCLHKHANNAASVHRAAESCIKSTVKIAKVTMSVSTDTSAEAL
# Some compounds may have been tested in ways that are not shown here.
# Experiments:
# Cannabinoid receptor 2 = Cannabinoid receptor 2 (Homo sapiens, UniProt P34972); assay: Displacement of [3H]CP55940 from recombinant human CB2 receptor expressed in HEK293 cell membranes measured after 90 mins
# Procedure, shortened: (§1)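 Membranes from HEK-293 cells stably expressing human recombinant CB1 (Bmax 2.5 pmol/mg protein) or CB2 (Bmax 4.7 pmol/mg protein). [3H]-CP-55,940 was used at 0.14 nM for CB1 (Kd 0.18 nM) and 0.084 nM for CB2 (Kd 0.31 nM), with increasing test concentrations, 90 min at 30 °C. Non-specific binding was set with 10 μM WIN 55212-2. Ki came from IC50 via Cheng–Prusoff; n ≥ 3, mean ± SEM. SI = CB1 Ki / CB2 Ki.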
# Cannabinoid receptor 1 [1] = target: T1, Cannabinoid receptor 1 (Homo sapiens, UniProt P21554); assay: Displacement of [3H]CP55940 from recombinant human CB1 receptor expressed in HEK293 cell membranes measured after 90 mins; procedure, shortened: as §1
# Cannabinoid receptor 1 [2] = target: T1, Cannabinoid receptor 1; assay: Displacement of [3H]CP55940 from recombinant human CB1 receptor expressed in HEK293 cell membranes at 10 uM measured after 90 mins relative to control; settings: hek293, 1.5 h
structure (smiles),measurement,setting,value
Cc1ccc2c(c1)nc(Cn1nnc3ccccc31)n2CCN(C)C,Ki,Cannabinoid receptor 2,> 10 µM
same,Ki,Cannabinoid receptor 1 [1],> 10 µM
same,inhibition (INH),Cannabinoid receptor 1 [2],19%
